In assay [1] the target is T1, CDK7/Cyclin H/MNAT1 (Homo sapiens) (UniProt P51946+P50613+P51948). Description: Ratio of Ki CDK7/cyclinH/MAT1 (unknown origin) to Kinact CDK7/cyclinH/MAT1 (unknown origin) assessed as inactivation constant. Type of assay: protein-complex assay.
Assay [2] addresses T1, CDK7/Cyclin H/MNAT1 (Homo sapiens). Description: Competitive irreversible inhibition of CDK7/cyclinH/MAT1 (unknown origin) assessed as inactivation constant using 5-FAM YSPTSPSYSPTSPSYSPTSPSKKKK as substrate. Type of assay: protein-complex assay.

The chains behind the UniProt entries cited, without tags or fusion partners. Where a name states a change or a piece, a line headed by the entry shows the natural chain unless it says otherwise.
UniProt P51946: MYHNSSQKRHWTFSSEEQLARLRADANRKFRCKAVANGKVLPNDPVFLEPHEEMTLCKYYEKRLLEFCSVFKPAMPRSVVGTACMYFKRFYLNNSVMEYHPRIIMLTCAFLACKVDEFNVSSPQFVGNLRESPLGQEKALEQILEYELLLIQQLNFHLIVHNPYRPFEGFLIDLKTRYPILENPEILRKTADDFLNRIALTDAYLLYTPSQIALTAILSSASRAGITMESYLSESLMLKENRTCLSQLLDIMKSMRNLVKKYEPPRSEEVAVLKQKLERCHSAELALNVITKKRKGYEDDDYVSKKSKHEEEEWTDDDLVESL
UniProt P50613: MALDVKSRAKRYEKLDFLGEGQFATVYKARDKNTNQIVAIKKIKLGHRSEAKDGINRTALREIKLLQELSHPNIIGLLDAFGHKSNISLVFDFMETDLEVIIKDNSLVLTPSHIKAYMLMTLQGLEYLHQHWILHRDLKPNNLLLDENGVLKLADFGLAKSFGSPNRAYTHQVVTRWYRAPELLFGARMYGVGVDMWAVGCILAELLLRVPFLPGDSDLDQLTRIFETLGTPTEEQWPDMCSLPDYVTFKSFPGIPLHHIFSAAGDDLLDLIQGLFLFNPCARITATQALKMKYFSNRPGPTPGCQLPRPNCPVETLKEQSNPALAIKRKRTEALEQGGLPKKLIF
UniProt P51948: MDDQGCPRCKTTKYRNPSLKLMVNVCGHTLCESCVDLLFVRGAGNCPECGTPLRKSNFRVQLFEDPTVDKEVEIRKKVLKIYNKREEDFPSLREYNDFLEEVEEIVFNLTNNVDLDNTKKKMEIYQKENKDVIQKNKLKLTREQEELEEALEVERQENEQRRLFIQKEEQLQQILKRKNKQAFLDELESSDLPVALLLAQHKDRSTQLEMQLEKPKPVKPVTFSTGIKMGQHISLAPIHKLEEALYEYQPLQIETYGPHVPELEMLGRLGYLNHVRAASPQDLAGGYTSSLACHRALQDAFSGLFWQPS

Structures are written as SMILES.

In the case of `CN(C)C/C=C/C(=O)Nc1ccc(C(=O)N[C@@]2(C)CCC[C@@H](Nc3ncc(Cl)c(-c4c[nH]c5ccccc45)n3)C2)nc1`, the Ratio in assay [1] is 0.131 µM⁻¹ s⁻¹. Besides, in assay [2], the Kinact worked out at 8.2 h⁻¹.

(Values after ChEMBL document CHEMBL4406837, “Cyclin dependent kinase (CDK) inhibitors as anticancer drugs: Recent advances (2015-2019)” (Bioorg Med Chem Lett, 2019).)
